# AlphaSeq binding of Ab-14 heavy chain variants to a spike HR2 peptide

The measurements come from Engelhart et al. 2022 (doi:10.1038/s41597-022-01779-4) through the FLAb antibody collection.

The target is the same throughout: PDVDLGDISGINAS, from the HR2 region of SARS-CoV-2 spike.

Parent scFv Ab-14: VH joined to VL by three GGGGS repeats. Changes lie in the heavy chain CDRs alone.
VH: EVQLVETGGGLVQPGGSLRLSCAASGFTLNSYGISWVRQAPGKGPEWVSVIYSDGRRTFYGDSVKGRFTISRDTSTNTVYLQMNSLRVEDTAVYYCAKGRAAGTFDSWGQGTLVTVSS
VL: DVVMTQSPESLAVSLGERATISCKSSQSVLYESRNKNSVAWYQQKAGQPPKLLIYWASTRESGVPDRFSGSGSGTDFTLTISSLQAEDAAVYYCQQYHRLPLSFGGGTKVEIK

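In library AAYL49, one, two or three CDR residues were substituted; doubles and triples were drawn at random. The assay is AlphaSeq: two haploid yeast populations carry antibody and antigen on their surface. Mating (16 h, 30 °C) was followed by selection of diploids and sequencing of their barcodes. The ratio of observed to expected reads was calibrated, replicate by replicate, on BCL2-family standards whose Kd was known from biolayer interferometry. Each pool was mated in three replicate cultures.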

Substitutions are numbered in sequence along the VH above, starting at 1 (not Kabat). All variants listed here change G103 of the VH, counted from its first residue. The Kd shown is the geometric mean over detected replicates; a lower Kd is a better binder. "nd" means that the variant was in the library but no mating with the target was seen in any replicate; the authors take this as a sign of poor binding, and no number exists. Nonspecific signal, from three strains lacking the peptide, appeared in 15% of pairings of library AAYL49, centred on 11 µM (5% of these signals below 680 nM); values are not corrected for it. The control count says in how many pairings with the empty strains this scFv gave a signal.

| changes | apparent Kd | seen in | control signals |
|---|---|---|---|
| S31K+G33N+G103K | nd | 0 of 3 | 2 of 9 |
| R56W+G103M+D106Y | nd | 0 of 3 | 0 of 9 |
| L29Q+K65E+G103E | 49 µM | 1 of 3 | 0 of 9 |
| F59V+G103A+T104V | 560 nM | 3 of 3 | 1 of 9 |
| I34L+D62E+G103Q | nd | 0 of 3 | 1 of 9 |
| G55A+S63P+G103I | 20 µM | 1 of 3 | 1 of 9 |
| G55I+R56F+G103S | 23 µM | 2 of 3 | 2 of 9 |
| R56I+G103R+D106F | 25 nM | 3 of 3 | 0 of 9 |
| G99K+G103Y | 500 µM | 1 of 3 | 0 of 9 |
| L29K+G55T+G103F | nd | 0 of 3 | 1 of 9 |
| G103M | 14 µM | 1 of 3 | 1 of 9 |
| T28I+F59S+G103S | nd | 0 of 3 | 2 of 9 |
| N30I+K65M+G103C | 2.1 µM | 1 of 3 | 1 of 9 |
| N30F+G99I+G103P | nd | 0 of 3 | 1 of 9 |
| F27P+G103W | 400 nM | 3 of 3 | 0 of 9 |
| T28K+R100P+G103D | 25 nM | 3 of 3 | 1 of 9 |
| Y32H+S63A+G103N | 23 µM | 2 of 3 | 7 of 9 |
| G103D | nd | 0 of 3 | 1 of 9 |
| V64F+K65V+G103N | 8.3 µM | 1 of 3 | 0 of 9 |
| Y32E+Y60V+G103T | nd | 0 of 3 | 3 of 9 |
| Y32W+R100A+G103K | nd | 0 of 3 | 0 of 9 |
| I51L+K65H+G103S | 1.7 µM | 1 of 3 | 0 of 9 |
| L29P+A101C+G103R | nd | 0 of 3 | 1 of 9 |
| S31Q+S53Y+G103Y | nd | 0 of 3 | 0 of 9 |
| S35D+A101F+G103R | nd | 0 of 3 | 0 of 9 |
| N30V+G103S | nd | 0 of 3 | 1 of 9 |
| N30L+G33K+G103P | nd | 0 of 3 | 1 of 9 |
| G61D+G99Q+G103Q | 410 nM | 1 of 3 | 1 of 9 |
| G61Q+G103M | 16 µM | 2 of 3 | 2 of 9 |
| S35Y+G99W+G103L | nd | 0 of 3 | 2 of 9 |
| Y52A+G103R+F105M | 74 µM | 1 of 3 | 2 of 9 |
| V50A+G61A+G103C | 87 µM | 1 of 3 | 2 of 9 |
| D62W+G103M | nd | 0 of 3 | 1 of 9 |
| L29D+G103H | nd | 0 of 3 | 2 of 9 |
| G61V+G103Q+T104N | 84 nM | 3 of 3 | 3 of 9 |
| A102M+G103E | nd | 0 of 3 | 1 of 9 |
| L29I+G103T+F105C | nd | 0 of 3 | 0 of 9 |
| G103L+T104N | nd | 0 of 3 | 2 of 9 |
| K65G+G103P+S107P | 350 nM | 3 of 3 | 1 of 9 |
| G99D+G103M | nd | 0 of 3 | 0 of 9 |
| L29S+F59R+G103E | 78 µM | 2 of 3 | 3 of 9 |
| F59H+S63C+G103T | nd | 0 of 3 | 1 of 9 |
| V50W+S53M+G103T | nd | 0 of 3 | 1 of 9 |
| G61V+D62A+G103F | 11 µM | 1 of 3 | 2 of 9 |
| N30V+G55L+G103D | nd | 0 of 3 | 1 of 9 |
| D54W+G55C+G103K | 38 µM | 1 of 3 | 0 of 9 |
| S53Y+G103M | 760 nM | 1 of 3 | 0 of 9 |
| T28Y+G103W+S107T | 69 nM | 3 of 3 | 1 of 9 |
| T28R+A101M+G103N | nd | 0 of 3 | 2 of 9 |
| T28S+R100M+G103M | nd | 0 of 3 | 1 of 9 |
| G26F+G103K+F105S | nd | 0 of 3 | 0 of 9 |
| D62M+A102Q+G103M | nd | 0 of 3 | 0 of 9 |
| R57Q+V64Y+G103T | nd | 0 of 3 | 0 of 9 |
| Y52K+V64A+G103S | nd | 0 of 3 | 3 of 9 |
| F27C+G103R | 80 nM | 2 of 3 | 0 of 9 |
| R57E+G103P | nd | 0 of 3 | 4 of 9 |
| Y52R+F59W+G103S | 11 µM | 3 of 3 | 3 of 9 |
| S31R+A101S+G103A | nd | 0 of 3 | 0 of 9 |
| R57S+T58S+G103L | nd | 0 of 3 | 0 of 9 |
| G33M+I51P+G103L | nd | 0 of 3 | 0 of 9 |

Excerpt, the final 4 entries:

| changes | apparent Kd | seen in | control signals |
|---|---|---|---|
| Y52R+F59W+G103S | 11 µM | 3 of 3 | 3 of 9 |
| S31R+A101S+G103A | nd | 0 of 3 | 0 of 9 |
| R57S+T58S+G103L | nd | 0 of 3 | 0 of 9 |
| G33M+I51P+G103L | nd | 0 of 3 | 0 of 9 |